Key:
Mr 75,000-85,000 protein = molecular target: T1, Mr 75,000-85,000 protein (Mus musculus, UniProt P21729); assay: Chemical cross-linking (EGS) of 125I-GRP to the Mr 75,000-85,000 protein in Swiss 3T3 membranes; assay type: binding, murine; settings: 10 min, addition at 10 μM, 0.5 nM 125I-GRP, 37° C., None 100, read-out: 125I-GRP affinity labelling of the Mr 75,000-85,000 protein
T1 construct: Membrane protein (150 μg) prepared from Swiss 3T3 cells as described above; endogenous in cells; host or cells: Swiss 3T3 cells; membrane-enriched fraction prepared with 5 mM Mg2+
Protocol: BSA was omitted from all solutions used in the cross-linking studies. At the end of the incubation the membranes were centrifuged at 1000 rpm for 1 minute in a MSE microfuge at room n temperature. The pellets were then resuspended in cross-linking medium containing 4 mM of the cross-linking reagent (EGS) and incubated at 37° C. or 15° C. for 5 minutes or 15 minutes respectively. The reaction was terminated by centrifugation for 1 minute followed by one wash with cross-linking medium and centrifugation. Samples were solubilised in 0.20 ml of 2× sample buffer, (0.2 M Tris-HCl pH 6.8, 10% (w/v) glycerol, 6% sodium dodecyl sulphate (SDS) (w/v), 4% β-mercaptoethanol (v/v), and 2 mM EDTA), immediately heated to 100° C. for 10 minutes and analysed by one dimensional electrophoresis.
SDS-Polyacrylaaide Gel glectrophoresis: Slab gel electrophoresis was performed using 8% acrylamide in the separating gel and 4% in the stacking gel and 0.1% SDS (37). After electrophoresis gels were stained, desrained and dried down onto paper for autoradiography with Fuji x-ray film. Dried gels were exposed for 2-4 days at -70° C. Autoradiograms were scanned using an LKB ultrascan XL densitometer; and the incorporation of radioactivity into the Mr 75,000-85,000 band was quantified using the Ultroscan XL internal digital integrator. […]

The chains behind the UniProt entries cited, without tags or fusion partners. Where a name states a change or a piece, a line headed by the entry shows the natural chain unless it says otherwise.
UniProt P21729: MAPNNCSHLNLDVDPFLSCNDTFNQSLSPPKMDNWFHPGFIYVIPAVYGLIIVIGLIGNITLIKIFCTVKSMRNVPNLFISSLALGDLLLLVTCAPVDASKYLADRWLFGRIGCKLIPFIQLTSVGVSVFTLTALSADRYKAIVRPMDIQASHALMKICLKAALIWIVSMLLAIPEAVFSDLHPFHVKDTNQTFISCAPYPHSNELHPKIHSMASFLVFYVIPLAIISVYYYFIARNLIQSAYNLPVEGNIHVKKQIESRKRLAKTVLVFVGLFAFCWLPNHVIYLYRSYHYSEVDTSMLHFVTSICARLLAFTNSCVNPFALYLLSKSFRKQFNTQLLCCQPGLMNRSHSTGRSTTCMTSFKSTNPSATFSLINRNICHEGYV

bombesin/GRP receptor = molecular target: T2, bombesin/GRP receptor (Mus musculus, UniProt P21729); assay: 125I-GRP binding to membrane preparations of Swiss 3T3 cells; design: species or system murine; settings: addition at 1μM; 0.5 nM 125I-GRP, 37° C., 10 minutes; None 305 ± 9; mean±SEM, n=3
T2 construct: Membrane protein (150 μg) prepared from Swiss 3T3 cells as described above; endogenous in cells; host or cells: Swiss 3T3 cells; membrane-enriched fraction prepared with 5 mM Mg2+
Protocol: Membrane preparation: Cultures in roller bottles were washed twice with 150 ml phosphate buffered saline (PBS) (0.14M NaCl, 5 mM KCl, 0.01M Na2 HPO4, 1.8 mM KH2 PO4; pH 7.2) at room temperature. The cells were then harvested at 4° C. by scraping into ice cold PBS containing 5 mM MgCl2, 1 mM [ethylenebis(oxyethylenenitrilo)]tetraacetic acid (EGTA), 1 mg/ml bacitracin, 10 ug/ml aprotonin, 1 mg/ml soybean trypsin inhibitor and 50 μM phenylmethylsulphonyl fluoride. All subsequent steps were carried out at 4° C. […]
The binding reactions were terminated at the specified times by rapid filtration on GF/B glass fibre filters (Whatmann, 1.0 μm pore size). […] Radioactivity was determined with a Beckmann γ-counter.
When 1n[(Beq - Bt)/(BoLo - Beq Bt)]is plotted as a function of time k1 can be determined from the slope by the following relation k1 =slope x [Beg/(Beg^2 - BoLo)](36) where Bo and Lo are the initial concentrations of receptor and ligand respectively. […]
The first order rate constant of dissociation was determined from the slope of the line obtained by plotting ln(Bt/Beg) as a function of time.
The reactions were terminated and specific binding determined as described in "Experimental Procedures".

CSCC[C@H](NC(=O)[C@H](CCCCN)NC(=O)[C@@H](NC(=O)[C@H](CC(C)C)NC(=O)[C@@H](NC(=O)[C@@H](NC(=O)CNC(=O)CNC(=O)CNC(=O)[C@H](C)NC(=O)[C@@H]1CCCN1C(=O)[C@H](CC(C)C)NC(=O)[C@@H]1CCCN1C(=O)[C@@H](N)C(C)C)[C@@H](C)O)C(C)C)[C@@H](C)O)C(=O)N[C@@H](Cc1ccc(O)cc1)C(=O)N1CCC[C@H]1C(=O)O [GRP(1-16)]
remaining activity at 10 µM (Mr 75,000-85,000 protein): 102 ± 3%
specific binding of 125I-GRP to membranes (bombesin/GRP receptor): 299 ± 8 fmole/mg protein
